Laboratory results from patent publication EP4553077A1 (Kinoteck Therapeutics Co., Ltd, priority 2022, dated 2024).

By UniProt entry, the sequences of proteins in these tests, tags left out. Where a name states a change or a piece, a line headed by the entry shows the natural chain unless it says otherwise.
UniProt Q12809: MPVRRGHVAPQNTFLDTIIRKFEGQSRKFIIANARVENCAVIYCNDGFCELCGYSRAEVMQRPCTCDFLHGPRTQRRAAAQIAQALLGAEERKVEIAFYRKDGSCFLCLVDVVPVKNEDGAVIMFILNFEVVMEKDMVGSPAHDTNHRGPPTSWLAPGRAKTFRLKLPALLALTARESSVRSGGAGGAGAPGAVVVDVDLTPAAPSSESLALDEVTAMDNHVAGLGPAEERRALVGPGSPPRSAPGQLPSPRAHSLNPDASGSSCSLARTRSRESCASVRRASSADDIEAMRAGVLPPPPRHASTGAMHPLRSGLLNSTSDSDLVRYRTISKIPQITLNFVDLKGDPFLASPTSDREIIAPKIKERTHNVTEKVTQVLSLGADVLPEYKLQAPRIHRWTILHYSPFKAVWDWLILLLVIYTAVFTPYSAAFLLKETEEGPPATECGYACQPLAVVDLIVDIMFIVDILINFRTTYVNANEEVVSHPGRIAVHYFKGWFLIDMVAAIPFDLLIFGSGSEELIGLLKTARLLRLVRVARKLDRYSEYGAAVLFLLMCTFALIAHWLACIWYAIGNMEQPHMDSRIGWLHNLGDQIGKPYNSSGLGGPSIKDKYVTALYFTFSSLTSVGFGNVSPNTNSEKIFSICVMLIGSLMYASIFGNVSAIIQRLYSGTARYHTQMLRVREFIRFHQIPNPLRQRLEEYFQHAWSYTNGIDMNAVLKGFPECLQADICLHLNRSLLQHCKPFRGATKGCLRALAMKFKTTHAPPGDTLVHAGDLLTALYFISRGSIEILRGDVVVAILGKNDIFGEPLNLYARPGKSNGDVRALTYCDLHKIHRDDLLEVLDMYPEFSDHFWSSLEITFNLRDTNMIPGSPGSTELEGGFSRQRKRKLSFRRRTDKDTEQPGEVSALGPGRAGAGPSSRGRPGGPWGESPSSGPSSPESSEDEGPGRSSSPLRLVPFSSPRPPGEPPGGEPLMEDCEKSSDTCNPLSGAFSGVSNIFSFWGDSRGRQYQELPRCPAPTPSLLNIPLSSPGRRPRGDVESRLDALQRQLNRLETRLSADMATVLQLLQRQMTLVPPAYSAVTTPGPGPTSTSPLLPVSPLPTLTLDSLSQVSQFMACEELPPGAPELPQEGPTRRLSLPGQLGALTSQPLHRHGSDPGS

Target: hERG (Homo sapiens, UniProt Q12809)
Assay: Manual patch clamp, hERG channel current in HEK-293 cells

C=C(C)C(=O)Nc1ccc(-c2c(-c3ccc(Oc4nccc(C)n4)c(F)c3)c3c(N)ncnc3n2C)cc1 [Control compound I, reference compound]
IC50: 6.05 µM
